Tests used:
[1] = target: Hsp90α-CT (human Hsp90α immobilized via the C-terminal) (Homo sapiens, UniProt P07900); test: Frontal chromatography on Hsp90α-CT column; format: binding; conditions: 10 mM Tris–HCl pH 7.4, 25 °C, ±SE
[2] = target: Hsp90α-NT (human Hsp90α immobilized via the N-terminal) (Homo sapiens, UniProt P07900); test: Frontal chromatography on Hsp90α-NT column; format: binding; conditions: 10 mM Tris–HCl pH 7.4, 25 °C, ±SE

Substance: berbamine
- Kd [1]: 18 ± 4.9 µM
- Kd [2]: 18.6 ± 3.8 µM

Substance: isotetrandrine
- Kd [1]: 29.9 ± 8.4 µM
- Kd [2]: 46.3 ± 14.8 µM

Reference: publication PMC4632246 (Analytical biochemistry, 2012)
